These results are taken from patent publication US20010013317A1, “Medium for coloring live bait worms” (priority 1999, published 2001).

The nature of the series: Solubility of colorant in water. The following applies: at 25° C.

Take `O=C([O-])c1c(Cl)c(Cl)c(Cl)c(Cl)c1-c1c2cc(Br)c(=O)c(Br)c-2oc2c(Br)c([O-])c(Br)cc12.[Na+].[Na+]` [D & C Red 28]: the Solubility in water stood at 9000 µg/mL.
